Results taken from PubChem BioAssay AID489035 (Sanford-Burnham Center for Chemical Genomics, 2010).
Active and inactive are the calls of the source. The rule behind the calls is not given here.

System: Jurkat NF-kB reporter, TCR-induced, luciferase luminescence
Assay: T-cell NF-kB luciferase reporter inhibition – Jurkat cells, luminescence, dose response (AID 489035)

Compound | IC50
O=c1c2ccccc2nc(/C=C/c2ccc([N+](=O)[O-])o2)n1-c1ccc(O)cc1 | 1.7 µM
Cc1ccnc2c1ccc1cccnc12 | 12.9 µM
CC[n+]1c(/C=C/N(C)c2ccccc2)oc2ccccc21 | inactive: > 80 µM
